Ki data for 1 compound are collected here from article PMC5548612 (Drug and alcohol dependence, 2017).

By UniProt entry, the sequences of proteins in these tests, tags left out.
UniProt P28223, whole entry: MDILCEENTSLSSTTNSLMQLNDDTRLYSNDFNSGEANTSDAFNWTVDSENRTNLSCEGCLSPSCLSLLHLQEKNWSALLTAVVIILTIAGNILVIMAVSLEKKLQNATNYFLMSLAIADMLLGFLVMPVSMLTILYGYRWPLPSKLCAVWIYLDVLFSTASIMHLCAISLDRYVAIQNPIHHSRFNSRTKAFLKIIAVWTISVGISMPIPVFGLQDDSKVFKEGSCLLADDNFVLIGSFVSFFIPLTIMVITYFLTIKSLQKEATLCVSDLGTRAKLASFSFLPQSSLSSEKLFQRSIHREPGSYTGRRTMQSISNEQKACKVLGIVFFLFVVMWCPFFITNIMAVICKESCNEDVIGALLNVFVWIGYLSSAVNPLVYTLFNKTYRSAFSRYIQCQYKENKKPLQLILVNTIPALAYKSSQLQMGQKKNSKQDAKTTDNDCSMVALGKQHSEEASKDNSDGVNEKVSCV

In this assay the target is 5-HT2A receptor (Homo sapiens, UniProt P28223). Description: biochemical.

For the compound `CN[C@@H](C)C(=O)c1ccc(C)cc1` [S-MEPH, S-mephedrone], affinity was put at a Ki of 1300 nM. That is a single-digit micromolar value.

For orientation: Ki means a measure of affinity in units of concentration, obtained from inhibition or displacement. A lower Ki goes with tighter binding.
